From PubChem BioAssay (NCI)
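Cultured in 96-well plates, cells were exposed to test compound for 48 hours across five concentrations. The concentration for 50% growth inhibition is given as GI50. TGI: total growth inhibition.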

Experiments:
Assay in all cases: growth of human tumour cells (NCI), 48 h; in the data active = GI50 below about 0.43 µM; inactive = the rest
MCF7 breast = tested on: MCF7 breast
KM12 colon = tested on: KM12 colon
MDA-MB-231 breast = tested on: MDA-MB-231 breast
OVCAR-3 ovarian = tested on: OVCAR-3 ovarian
CAKI-1 renal = tested on: CAKI-1 renal
HOP-92 NSCLC = tested on: HOP-92 NSCLC
MOLT-4 leukemia = tested on: MOLT-4 leukemia
OVCAR-4 ovarian = tested on: OVCAR-4 ovarian
TK-10 renal = tested on: TK-10 renal
M14 melanoma = tested on: M14 melanoma
RXF 393 renal = tested on: RXF 393 renal
HCT-116 colon = tested on: HCT-116 colon
A549 NSCLC = tested on: A549 NSCLC
SK-OV-3 ovarian = tested on: SK-OV-3 ovarian
OVCAR-5 ovarian = tested on: OVCAR-5 ovarian
UACC-257 melanoma = tested on: UACC-257 melanoma
U251 CNS = tested on: U251 CNS
A498 renal = tested on: A498 renal
ACHN renal = tested on: ACHN renal
SK-MEL-28 melanoma = tested on: SK-MEL-28 melanoma
SF-295 CNS = tested on: SF-295 CNS
HL-60(TB) leukemia = tested on: HL-60(TB) leukemia
K-562 leukemia = tested on: K-562 leukemia
COLO 205 colon = tested on: COLO 205 colon
SNB-75 CNS = tested on: SNB-75 CNS
LOX IMVI melanoma = tested on: LOX IMVI melanoma
NCI-H460 lung = tested on: NCI-H460 lung
HCT-15 colon = tested on: HCT-15 colon
786-0 renal = tested on: 786-0 renal
DU-145 prostate = tested on: DU-145 prostate
SN12C renal = tested on: SN12C renal
MDA-MB-435 = tested on: MDA-MB-435
SR leukemia = tested on: SR leukemia
NCI/ADR-RES ovarian = tested on: NCI/ADR-RES ovarian
SF-539 CNS = tested on: SF-539 CNS
SK-MEL-5 melanoma = tested on: SK-MEL-5 melanoma
UACC-62 melanoma = tested on: UACC-62 melanoma
HT29 colon = tested on: HT29 colon
UO-31 renal = tested on: UO-31 renal
NCI-H226 lung = tested on: NCI-H226 lung
IGROV1 ovarian = tested on: IGROV1 ovarian
MDA-N = tested on: MDA-N
OVCAR-8 ovarian = tested on: OVCAR-8 ovarian
NCI-H322M lung = tested on: NCI-H322M lung
CCRF-CEM leukemia = tested on: CCRF-CEM leukemia
SK-MEL-2 melanoma = tested on: SK-MEL-2 melanoma
SNB-19 CNS = tested on: SNB-19 CNS
EKVX NSCLC = tested on: EKVX NSCLC
SW-620 colon = tested on: SW-620 colon
PC-3 prostate = tested on: PC-3 prostate

O=[N+]([O-])c1nc(-c2nc([N+](=O)[O-])c([N+](=O)[O-])[nH]2)[nH]c1[N+](=O)[O-]
> 100 µM: TGI (MCF7 breast) | TGI (KM12 colon) | TGI (MDA-MB-231 breast) | TGI (OVCAR-3 ovarian) | TGI (CAKI-1 renal) | TGI (HOP-92 NSCLC) | TGI (MOLT-4 leukemia) | TGI (OVCAR-4 ovarian) | TGI (TK-10 renal) | TGI (M14 melanoma) | TGI (RXF 393 renal) | TGI (HCT-116 colon) | TGI (A549 NSCLC) | TGI (SK-OV-3 ovarian) | TGI (OVCAR-5 ovarian) | TGI (UACC-257 melanoma) | TGI (U251 CNS) | TGI (A498 renal) | TGI (ACHN renal) | TGI (SK-MEL-28 melanoma) | TGI (SF-295 CNS) | TGI (HL-60(TB) leukemia) | TGI (K-562 leukemia) | TGI (COLO 205 colon) | TGI (SNB-75 CNS) | TGI (LOX IMVI melanoma) | TGI (NCI-H460 lung) | TGI (HCT-15 colon) | TGI (786-0 renal) | TGI (DU-145 prostate) | TGI (SN12C renal) | TGI (MDA-MB-435) | TGI (SR leukemia) | TGI (NCI/ADR-RES ovarian) | TGI (SF-539 CNS) | TGI (SK-MEL-5 melanoma) | TGI (UACC-62 melanoma) | TGI (HT29 colon) | TGI (UO-31 renal) | TGI (NCI-H226 lung) | TGI (IGROV1 ovarian) | TGI (MDA-N) | TGI (OVCAR-8 ovarian) | TGI (NCI-H322M lung) | TGI (CCRF-CEM leukemia) | TGI (SK-MEL-2 melanoma) | TGI (SNB-19 CNS) | TGI (EKVX NSCLC) | TGI (SW-620 colon) | TGI (PC-3 prostate)
inactive: GI50 (MCF7 breast) > 100 µM | GI50 (KM12 colon) > 100 µM | GI50 (MDA-MB-231 breast) > 100 µM | GI50 (OVCAR-3 ovarian) > 100 µM | GI50 (CAKI-1 renal) > 100 µM | GI50 (HOP-92 NSCLC) > 100 µM | GI50 (MOLT-4 leukemia) > 100 µM | GI50 (OVCAR-4 ovarian) > 100 µM | GI50 (TK-10 renal) > 100 µM | GI50 (M14 melanoma) > 100 µM | GI50 (RXF 393 renal) > 100 µM | GI50 (HCT-116 colon) > 100 µM | GI50 (A549 NSCLC) > 100 µM | GI50 (SK-OV-3 ovarian) > 100 µM | GI50 (OVCAR-5 ovarian) > 100 µM | GI50 (UACC-257 melanoma) > 100 µM | GI50 (U251 CNS) > 100 µM | GI50 (A498 renal) > 100 µM | GI50 (ACHN renal) > 100 µM | GI50 (SK-MEL-28 melanoma) > 100 µM | GI50 (SF-295 CNS) > 100 µM | GI50 (HL-60(TB) leukemia) > 100 µM | GI50 (K-562 leukemia) > 100 µM | GI50 (COLO 205 colon) > 100 µM | GI50 (SNB-75 CNS) > 100 µM | GI50 (LOX IMVI melanoma) > 100 µM | GI50 (NCI-H460 lung) > 100 µM | GI50 (HCT-15 colon) > 100 µM | GI50 (786-0 renal) > 100 µM | GI50 (DU-145 prostate) > 100 µM | GI50 (SN12C renal) > 100 µM | GI50 (MDA-MB-435) > 100 µM | GI50 (SR leukemia) > 100 µM | GI50 (NCI/ADR-RES ovarian) > 100 µM | GI50 (SF-539 CNS) > 100 µM | GI50 (SK-MEL-5 melanoma) > 100 µM | GI50 (UACC-62 melanoma) > 100 µM | GI50 (HT29 colon) > 100 µM | GI50 (UO-31 renal) > 100 µM | GI50 (NCI-H226 lung) > 100 µM | GI50 (IGROV1 ovarian) > 100 µM | GI50 (MDA-N) > 100 µM | GI50 (OVCAR-8 ovarian) > 100 µM | GI50 (NCI-H322M lung) > 100 µM | GI50 (CCRF-CEM leukemia) > 100 µM | GI50 (SK-MEL-2 melanoma) > 100 µM | GI50 (SNB-19 CNS) > 100 µM | GI50 (EKVX NSCLC) > 100 µM | GI50 (SW-620 colon) > 100 µM | GI50 (PC-3 prostate) > 100 µM
